For 1 substance, EC50 of cAMP accumulation in hTSHr-expressing CHO cells and maximum cAMP production in JP26 cells results are on record in patent US20090012268A1 (B R A H M S, published 2009).

The target in the test is human TSH receptor expressed on cells (human) (UniProt P16473). As to the kind of experiment: cell-based or functional assay.

“bovine TSH (from UniProt P01217 25-120; P01223 21-132) (ligand)” returned an EC50 of cAMP accumulation in hTSHr-expressing CHO cells of 1 nM and a maximum cAMP production in JP26 cells at a saturating concentration (100 mIU/ml) of 280 pmol/mL.
